{"source": "patent US12545900B2", "about": "“CGAS/DNCV-like nucleotidyltransferases and uses thereof” (Dana-Farber Cancer Institute, Inc., priority 2018, dated 2026)", "molecular_target": "T1, Mus musculus STING (Mus musculus, UniProt Q3TBT3)", "T1 construct": "6xHis-SUMO2 (N, cleaved yes); made in house; host or cells: E. coli BL21 CodonPlus (DE3)-RIL", "T1 sequence (Q3TBT3 138-378 limits assumed)": "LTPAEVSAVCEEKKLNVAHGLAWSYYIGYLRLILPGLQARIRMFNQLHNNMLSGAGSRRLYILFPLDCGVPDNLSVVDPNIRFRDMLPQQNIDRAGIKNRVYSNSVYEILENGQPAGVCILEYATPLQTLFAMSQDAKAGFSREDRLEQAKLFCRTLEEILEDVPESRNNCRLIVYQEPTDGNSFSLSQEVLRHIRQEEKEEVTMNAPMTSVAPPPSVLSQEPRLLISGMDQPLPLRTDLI", "assay": "Gel shift assay, radiolabeled nucleotide binding to STING (native PAGE)", "data": [{"molecule": "Nc1nc2c(ncn2[C@@H]2O[C@@H]3COP(=O)(O)O[C@H]4[C@@H](O)[C@H](n5cnc6c(N)ncnc65)O[C@@H]4COP(=O)(O)O[C@@H]2[C@@H]3O)c(=O)[nH]1", "note": "[2′3′ cGAMP, 2′-5′/3′-5′ cyclic GMP-AMP]", "values": [{"measurement": "recognition/binding of nucleotide by STING", "value": "detected by STING"}]}]}
